Experimental data taken from PubChem BioAssay AID873 (PCMD, 2007).
Only a part is listed here, and it is no random draw. Active and inactive are the calls of the source.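 Rule for the calls: active = inhibition of 40% or more; inactive = the rest.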

By UniProt entry, the sequences of proteins in these tests, tags left out. Residues count along the entry.
UniProt Q9Y337, 67-293 limits assumed: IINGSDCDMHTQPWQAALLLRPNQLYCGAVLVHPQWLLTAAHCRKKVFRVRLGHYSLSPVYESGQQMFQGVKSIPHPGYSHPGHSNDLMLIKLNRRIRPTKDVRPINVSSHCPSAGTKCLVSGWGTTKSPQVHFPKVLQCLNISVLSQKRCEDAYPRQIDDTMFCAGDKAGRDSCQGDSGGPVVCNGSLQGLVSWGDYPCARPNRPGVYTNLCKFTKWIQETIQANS

Biological target: Kallikrein-5 (Homo sapiens) (UniProt Q9Y337)
Assay: inhibition of kallikrein 5 (hK5) activity – biochemical, 1536-well, primary screen (AID 873);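 note: 0% = enzyme controls without compound and 100% = no-enzyme blanks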
Settings: recombinant hK5, fluorogenic AMC substrate cleavage; at 5 µM; stronger effect = higher value

Row | SMILES | inhibition
1 | COc1ccc(C(=O)NCC2(N3CCOCC3)CCCCC2)cc1OC | inactive: 7.29%
2 | O=C(OC1CN2CCC1CC2)C1c2ccccc2C=Cc2ccccc21 (centres undefined) | inactive: -15%
3 | N/C(=N\O)c1c(N)no[n+]1[O-] | inactive: -6.73%
4 | N#Cc1ccc(C(=O)NCC2(N3CCCCC3)CCCCC2)cc1 | inactive: 4.35%
5 | c1ccc(CN2CCC(Nc3ccccc3)CC2)cc1 | inactive: -20.1%
6 | Fc1ccccc1NC1CCN(Cc2ccccc2)CC1 | inactive: -13.7%
7 | CN(C)c1ccc(C(=O)NCC2(N3CCCCC3)CCCCC2)cc1 | inactive: 4.71%
8 | CCN1CCC(Nc2cccc(F)c2)CC1 | inactive: -8.59%
9 | CC(C)(C)OC(=O)N1CCC(Nc2ccccc2)CC1 | inactive: 5.92%
10 | CCOc1ncccc1C(=O)NCC1(N2CCOCC2)CCCCC1 | inactive: -4.63%
11 | CCCOc1ccc(C)cc1CN(CCCl)CCCl | inactive: -3.22%
12 | CCC(CO)(C(=O)OC1CN2CCC1CC2)c1ccccc1 (centres undefined) | inactive: -2.89%
13 | COc1cc(OC)cc(C(=O)NCC2(N3CCOCC3)CCCCC2)c1 | inactive: -4.8%
14 | COc1ccc(C(=O)NCC2(N3CCCCC3)CCCCC2)c(OC)c1OC | inactive: -10.9%
15 | CCOC(=O)N1CCC(Nc2ccc(OC)cc2)CC1 | inactive: -0.28%
16 | O=C(OC1CN2CCC1CC2)C1c2ccccc2Oc2ccccc21 (centres undefined) | inactive: -4.72%
17 | N#CC1(Nc2ccccc2)CCN(Cc2ccccc2)CC1 | inactive: -7.82%
18 | O=C(NCC1(N2CCOCC2)CCCCC1)c1cc2ccccc2o1 | inactive: -1.44%
19 | COc1ccc(NC2CCN(CCc3ccccc3)CC2)c(OC)c1 | inactive: 10%
20 | CCOc1ccc(C)cc1CN(CCCl)CCCl | inactive: -9.37%
21 | Cc1ccc(OCC(C)C)c(CN(CCCl)CCCl)c1 | inactive: -4.82%
22 | O=C(NCC1(N2CCCCC2)CCCCC1)c1cccc([N+](=O)[O-])c1 | inactive: -15.2%
23 | N#CC1(Nc2ccccc2)CCN(CCc2ccccc2)CC1 | inactive: -2.29%
24 | CN1CCN(CCOC(=O)C(O)(c2ccccc2)c2ccccc2)CC1 | inactive: -20.3%
25 | COc1ccc(NC2CCN(C(=O)OC(C)(C)C)CC2)cc1 | inactive: -7.78%
26 | O=C(NCC1(N2CCOCC2)CCCCC1)c1cc(=O)[nH]c2ccccc12 | inactive: -4.59%
27 | COc1ccc(CN(CCCl)CCCl)cc1Cl | inactive: -2.47%
28 | CN(C)c1cccc(C(=O)NCC2(N3CCCCC3)CCCCC2)c1 | inactive: -9.51%
29 | CC(C)c1ccc(NC2CCN(C(=O)OC(C)(C)C)CC2)cc1 | inactive: -5.25%
